Test results reported in patent US20210283217A1, “NEUROMODULATING COMPOSITIONS AND RELATED THERAPEUTIC METHODS FOR THE TREATMENT OF INFLAMMATORY AND AUTOIMMUNE DISEASES” (Flagship Pioneering Innovations V, Inc., priority 2016, published 2021).

System: primary human T cells
Test: T cell activation and cytokine secretion assay (LEGENDplex)
Format: cell-based
Method: Peripheral blood mononuclear cells (PBMCs) were isolated from whole blood by ficoll density separation. Briefly, blood was diluted 1:2 with 0.5 mM EDTA solution in PBS, loaded onto a Ficoll-filled Leucosep tube (Greiner Bio-One), and centrifuged for 20 minutes at 1000×g. After centrifugation, the leukocyte/PBMC layer on top of the separation medium was collected and sequentially washed three times with 0.5 mM EDTA solution in PBS. T cells were isolated from PBMCs using magnetic bead-based separation following vendor specification, e.g., Biolegend MojoSort Human CD4/CD8 Naïve T Cell Isolation Kit protocol. In brief, the PBMCs were labeled with biotinylated antibodies against cell surface receptors for cells not in the population of interest. The labeled cells are then captured by streptavidin-coated magnetic beads and removed by magnetic incubation. The uncaptured cells that flow through the magnetic separation are predominantly comprised of the population of interest, in this instance CD3+ T cells. T cells were stained with a 5 μM solution of Tag-it Violet™ dye (BioLegend) for 20 minutes protected from light. […] Supernatants were collected at 24, 48, and 72 hrs and cytokine secretion was analyzed by flow cytometry using a LEGENDplex assay (BioLegend). […] The beads were then stained and the captured cytokine composition assessed by flow cytometry.

CCCN1CCC[C@@H]2Cc3n[nH]cc3C[C@H]21 [quinpirole]
T cell production of pro-survival cytokine IL-2: increase
